Where only a bound is given, the exact number is not on record here.

Chains of the proteins cited; added tags and fusions are not shown.
UniProt P10415, whole entry: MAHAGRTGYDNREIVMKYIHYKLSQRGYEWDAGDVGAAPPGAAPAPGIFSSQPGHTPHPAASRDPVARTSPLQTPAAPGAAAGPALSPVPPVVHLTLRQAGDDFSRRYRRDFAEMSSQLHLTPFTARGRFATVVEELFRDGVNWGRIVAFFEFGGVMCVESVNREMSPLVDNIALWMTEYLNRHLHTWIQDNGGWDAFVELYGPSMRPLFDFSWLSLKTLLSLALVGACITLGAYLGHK

The target of experiment [1] is T1, Bcl-2 (Homo sapiens (Human), UniProt P10415). Briefly: Bcl-2 competition binding (fluorescence polarization) assay. The note with it: BH3 peptide, 3 hours incubation at room temperature. The protocol: Biological Example 1: Bcl-2 Competition Binding (Fluorescence Polarization) Assay
This binding assay was performed in 96-well plate and with each assay contained 15 and 30 nM of labeled peptide and purified Bcl-2 protein (purchased from R&D Systems, Inc). The assay buffer contained 20 mM Hepes (pH 7.0), 50 mM KCl, 5 mM MgCl2, 20 mM Na2MoO4, 0.1 mg/ml Bovine Gamma Globulin and 0.01% NP40. Compounds were diluted in DMSO and added to the final assay with concentration range from 20 uM to 2 nM. The polarization degree (mP) value was determined by BioTek Synergy II with background subtraction after 3 hours of incubation at room temperature. IC50 was calculated using Prism software with sigmoidal dose-response curve fitting. ABT-737 was used as reference compound. Such assays, carried out with a range of doses of test compounds, allow the determination of an approximate IC50 value.
(Polarisation of emitted light reports the rotation of a fluorescent probe.)

The target in experiment [2] is T1, Bcl-2. Conditions: cited from earlier work.

As usually defined, the IC50 is the midpoint of a concentration-inhibition curve. A word on the Ki: it is a dissociation constant, usually derived from enzyme kinetics or from competition with a known ligand. Turning to `CC1(C)CCC(c2ccc(Cl)cc2)=C(CN2CCN(c3ccc(C(=O)NS(=O)(=O)c4ccc(N[C@H](CCN5CCOCC5)CSc5ccccc5)c(S(=O)(=O)C(F)(F)F)c4)cc3)CC2)C1` [ABT-263], the IC50 at Bcl-2 [1] was less than 10 nM. On Bcl-2 [2], the Ki is no more than 1 nM.

The values above are taken from patent US10377755B2, “BCL-2 inhibitors” (Newave Pharmaceutical Inc., priority 2016, dated 2019).
